Here are results for one compound from patent US7390795B2, “Treatment and prevention of tissue damage” (Pentraxin Therapeutics Limited, priority 2000, dated 2008).

The structures appear in SMILES notation.

The target in the experiment is T1, C-reactive protein (CRP) (Homo sapiens, UniProt P02741).
T1 construct: from tissue; host or cells: Human material
T1 sequence (P02741 19-224): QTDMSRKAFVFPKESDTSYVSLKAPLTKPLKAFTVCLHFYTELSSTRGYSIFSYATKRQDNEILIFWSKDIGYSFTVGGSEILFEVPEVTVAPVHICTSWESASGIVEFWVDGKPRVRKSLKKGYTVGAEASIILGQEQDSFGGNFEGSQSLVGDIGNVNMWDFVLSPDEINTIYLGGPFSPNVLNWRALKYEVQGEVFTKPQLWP
Put plainly: Inhibition of binding of 125I radiolabelled CRP to enzyme modified low density lipoprotein immobilized in microtitre plates. The procedure:
Screening for Inhibitors of Binding of ^125I Radiolabelled CRP to Enzyme Modified Low Density Lipoprotein Immobilized in Microtitre Plates. […] However, likely critical ligands of importance in vivo in the pathogenesis of atherothrombosis, are modified forms of low density lipoprotein. […] All wells were then washed three times with 200 μl volumes of PBS before blocking by incubation for 1 h at room temperature with 100 μl per well of 0.2 m Tris pH 8.0. The wells were then washed again 3 times with 200 μl volumes of PBS and finally emptied before adding to each one 100 μl volumes of the following reagents.

As to `C[N+](C)(C)CCOP(=O)([O-])O` [Phosphocholine, phosphocholine], the “Percent inhibition of binding of radiolabelled CRP to immobilized enzyme modified low density lipoprotein” value by setting is: (compound molarity 1 μM) 0; (compound molarity 10 μM) 46; (compound molarity 100 μM) 93; (compound molarity 1 mM) 94; (compound molarity 10 mM) 95.
